# Experimental data: paper PMC6418270, “The pharmacological and functional characterization of the serotonergic system in Anopheles gambiae and Aedes aegypti: influences on flight and blood-feeding behavior” (Scientific Reports, 2019)
# Protein sequences, listed by entry. Tags and fused reporters are not part of them.
# UniProt A0A1S4GEY1, entry or part of it: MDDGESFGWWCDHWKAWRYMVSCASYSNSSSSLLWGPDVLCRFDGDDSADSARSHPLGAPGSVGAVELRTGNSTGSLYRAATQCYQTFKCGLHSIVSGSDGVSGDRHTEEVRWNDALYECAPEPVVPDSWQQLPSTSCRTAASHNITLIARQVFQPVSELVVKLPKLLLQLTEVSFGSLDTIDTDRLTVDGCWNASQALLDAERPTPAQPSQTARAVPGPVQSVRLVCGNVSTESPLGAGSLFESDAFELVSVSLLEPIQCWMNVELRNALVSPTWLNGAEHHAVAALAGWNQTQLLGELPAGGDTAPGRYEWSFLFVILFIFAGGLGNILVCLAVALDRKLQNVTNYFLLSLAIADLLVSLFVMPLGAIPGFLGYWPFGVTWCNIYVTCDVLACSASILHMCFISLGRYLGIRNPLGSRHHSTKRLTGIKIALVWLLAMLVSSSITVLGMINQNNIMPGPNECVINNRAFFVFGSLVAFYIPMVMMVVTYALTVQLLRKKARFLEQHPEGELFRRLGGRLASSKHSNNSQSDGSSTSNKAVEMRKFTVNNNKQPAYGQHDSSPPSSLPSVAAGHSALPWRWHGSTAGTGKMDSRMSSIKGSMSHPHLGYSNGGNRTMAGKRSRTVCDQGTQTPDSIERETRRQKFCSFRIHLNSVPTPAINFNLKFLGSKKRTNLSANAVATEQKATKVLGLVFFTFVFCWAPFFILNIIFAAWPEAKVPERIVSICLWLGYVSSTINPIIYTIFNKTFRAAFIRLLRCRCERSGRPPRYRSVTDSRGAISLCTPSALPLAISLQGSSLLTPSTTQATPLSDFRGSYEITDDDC
# UniProt A7UR33, entry or part of it: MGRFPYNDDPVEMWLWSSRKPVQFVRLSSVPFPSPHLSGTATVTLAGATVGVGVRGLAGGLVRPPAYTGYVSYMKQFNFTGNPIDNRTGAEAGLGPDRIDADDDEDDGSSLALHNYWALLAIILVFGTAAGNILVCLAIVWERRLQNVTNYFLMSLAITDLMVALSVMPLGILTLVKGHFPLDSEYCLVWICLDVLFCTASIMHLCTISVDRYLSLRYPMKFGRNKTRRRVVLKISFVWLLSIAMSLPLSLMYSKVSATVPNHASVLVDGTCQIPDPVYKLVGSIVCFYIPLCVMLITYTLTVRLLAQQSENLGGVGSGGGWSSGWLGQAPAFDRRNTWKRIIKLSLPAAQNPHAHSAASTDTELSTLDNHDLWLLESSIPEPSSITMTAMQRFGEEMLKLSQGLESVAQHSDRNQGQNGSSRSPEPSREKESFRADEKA
# Columns and labels:
# [1] = biological target: AGAP002232 (Anopheles gambiae, UniProt A0A1S4GEY1); assay: Fluo-4 calcium assay in CRE-luc2P HEK-293 cells expressing AGAP002232; assay type: cell-based; conditions: antagonist test; receptor not given, taken as both 5-HT2 cell lines
# Method: The GloResponse™ CRE-luc2P human embryonic kidney (HEK-293) reporter cells were incubated at 37 °C with an atmosphere of 5% CO2, and maintained in Dulbecco’s Modified Eagle Medium (DMEM) supplemented with 10% fetal bovine serum (FBS) and […] hygromycin B. Transfection of the HEK-293 cells with 1 μg of plasmid DNA was performed with Amaxa Nucleofector™ technology (Lonza, Basel, Switzerland) as per manufacturer’s instructions. A week post-transfection, selective pressure was applied with […] of G418 antibiotic to generate stable lines.
# 1 × 10^6 cells per well were seeded into a 96-well black all-clear bottom plate and incubated overnight in 10% FBS/90% DMEM at 37 °C with an atmosphere of 5% CO2. […] Fluorescence levels were determined with a FlexStation3 microplate reader, with excitation and emission wavelengths set to 485 and 525 nm, respectively (Molecular Devices LLC). Basal fluorescence levels were measured for 17 seconds, at which time, 25 μl of the agonist compound was added. Fluorescence measurements continued to be recorded for a total of 120 seconds at 2-second intervals. When testing antagonists, cells were treated with the compound prior to determination of fluorescence levels.
# Luminescence and calcium assay data were normalized and fitted with a non-linear least squares regression to generate dose-response curves, EC50 and IC50 values. […]
# [2] = biological target: AGAP002229 (Anopheles gambiae, UniProt A7UR33); assay: Fluo-4 calcium assay in CRE-luc2P HEK-293 cells expressing AGAP002229; assay type: cell-based; conditions: antagonist test; receptor not given, taken as both 5-HT2 cell lines
# Method: A week post-transfection, selective pressure was applied with […] of G418 antibiotic to generate stable lines.
# 1 × 10^6 cells per well were seeded into a 96-well black all-clear bottom plate and incubated overnight in 10% FBS/90% DMEM at 37 °C with an atmosphere of 5% CO2. The following day, 2X Fluo-4 Direct calcium dye (Molecular Devices LLC, San Jose, CA) was added to each well and incubated in the same conditions for 45 minutes before the assay was completed. At this time, serial dilutions of the test compounds were prepared in a 96-well clear flat bottom plate. […] Fluorescence measurements continued to be recorded for a total of 120 seconds at 2-second intervals. When testing antagonists, cells were treated with the compound prior to determination of fluorescence levels.
# Luminescence and calcium assay data were normalized and fitted with a non-linear least squares regression to generate dose-response curves, EC50 and IC50 values. Unpaired t-tests or Dunnett’s multiple comparisons test were performed accordingly to compare EC50 or IC50 values. Locomotion was measured based on the distance required for flight recovery. […] In the blood-feeding experiments, the percentage of blood-fed mosquitoes was calculated for each treatment group. […] Size of bloodmeals were compared with an unpaired t-test or Mann-Whitney test after normality was evaluated with the Kolmogorov-Smirnov test. […]
smiles,measurement,setting,value
"CN1CCC(=C2c3ccccc3C=Cc3ccccc32)CC1 [cyproheptadine, cyproheptadine hydrochloride sesquihydrate]",Ability to inhibit activity in a dose-response manner,[1],exhibited the ability to inhibit activity in a dose-response manner
same,Ability to inhibit activity in a dose-response manner,[2],exhibited the ability to inhibit activity in a dose-response manner

# Where a name gives a salt, the structure may show the parent alone.
